Data reported in ChEMBL document CHEMBL4334548, “Discovery of Isoxazole Amides as Potent and Selective SMYD3 Inhibitors” (ACS Med Chem Lett, 2020).

How the values were obtained:
[1] = molecular target: T1, Histone-lysine N-methyltransferase SMYD3 (Homo sapiens, UniProt Q9H7B4); assay: Inhibition of recombinant N-terminal FLAG/His-tagged SMYD3 (unknown origin) expressed in baculovirus infected insect cells using 3H-SAM as substrate assessed as 3H-MEKK2 methylation incubated for 40 mins by scintillation proximity assay
T1 sequence (Q9H7B4 whole entry): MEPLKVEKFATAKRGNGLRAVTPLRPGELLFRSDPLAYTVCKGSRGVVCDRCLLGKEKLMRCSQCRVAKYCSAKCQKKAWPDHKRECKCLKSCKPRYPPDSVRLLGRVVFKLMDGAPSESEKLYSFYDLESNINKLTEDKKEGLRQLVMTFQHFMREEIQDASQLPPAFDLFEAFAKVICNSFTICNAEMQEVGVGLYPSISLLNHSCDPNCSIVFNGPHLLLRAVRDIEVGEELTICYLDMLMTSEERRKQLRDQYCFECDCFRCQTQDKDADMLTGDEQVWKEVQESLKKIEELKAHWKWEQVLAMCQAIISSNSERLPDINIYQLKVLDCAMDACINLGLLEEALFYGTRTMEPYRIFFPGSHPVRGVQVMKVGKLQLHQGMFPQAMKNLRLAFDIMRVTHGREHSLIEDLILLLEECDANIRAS

[2] = molecular target: T1, Histone-lysine N-methyltransferase SMYD3; assay: Inhibition of recombinant SMYD3 (unknown origin) transfected in human HEK293 cells assessed as reduction in MEKK2 methylation incubated for 24 hrs by cellular mechanistic assay; assay type: cell-based
[3] = molecular target: T1, Histone-lysine N-methyltransferase SMYD3; assay: Uncompetitive inhibition of SMYD3 (unknown origin) assessed as inhibitory constant incubated for 60 mins by Cheng-Prusoff equation analysis
[4] = molecular target: T1, Histone-lysine N-methyltransferase SMYD3; assay: Uncompetitive inhibition of SMYD3 (unknown origin) assessed as inhibitory constant incubated for 60 mins by Lineweaver-Burk plot analysis
[5] = molecular target: T1, Histone-lysine N-methyltransferase SMYD3; assay: Inhibition of SMYD3 (unknown origin) assessed as reduction in histone H4 methylation

| SMILES | IC50 [1] [nM] | EC50 [2] [nM] | Ki [3] [nM] | Ki [4] [nM] | IC50 [5] [nM] |
| --- | --- | --- | --- | --- | --- |
| O=C(NC1CCN(S(=O)(=O)C[C@H]2CC[C@H](NCc3ccncc3)CC2)CC1)c1cc(C2CC2)on1 | 158 | – | – | – | – |
| CN(C)[C@H]1CC[C@H](CS(=O)(=O)N2CCC(NC(=O)c3cc(C4CC4)on3)CC2)CC1 | < 1 | 199 | – | – | – |
| Cc1ccccc1CN[C@H]1CC[C@H](CS(=O)(=O)N2CCC(NC(=O)c3cc(C4CC4)on3)CC2)CC1 | < 1 | 38 | – | – | – |
| O=C(NC1CCN(S(=O)(=O)C[C@H]2CC[C@H](NCc3ccc(Cl)cc3)CC2)CC1)c1cc(C2CC2)on1 | < 1 | 11 | – | – | – |
| CCN[C@H]1CC[C@H](CS(=O)(=O)N2CCC(NC(=O)c3cc(C4CC4)on3)CC2)CC1 | 32 | 205 | – | – | – |
| Cc1ccc(CN[C@H]2CC[C@H](CS(=O)(=O)N3CCC(NC(=O)c4cc(C5CC5)on4)CC3)CC2)nc1 | 5 | 48 | – | – | – |
| N[C@H]1CC[C@H](CS(=O)(=O)N2CCC(NC(=O)c3cc(C4CC4)on3)CC2)CC1 | 2.5 | 73 to 74 | – | – | – |
| O=C(NC1CCN(S(=O)(=O)[C@H]2CC[C@H](NCCCC(F)(F)F)CC2)CC1)c1cc(C2CC2)on1 | 6.3 | 44 | 18 | 18 | – |
| CCCCN[C@H]1CC[C@H](CS(=O)(=O)N2CCC(NC(=O)c3cc(C4CC4)on3)CC2)CC1 | 32 | 95 | – | – | – |
| CCN(CCCC(F)(F)F)[C@H]1CC[C@H](CS(=O)(=O)N2CCC(NC(=O)c3cc(C4CC4)on3)CC2)CC1 | 20 | 758 | – | – | – |
| O=C(NC1CCN(S(=O)(=O)C[C@H]2CC[C@H](NCCC(F)(F)F)CC2)CC1)c1cc(C2CC2)on1 | < 1 | 72 | – | – | – |
| Cc1ccc(CN[C@H]2CC[C@H](CS(=O)(=O)N3CCC(NC(=O)c4cc(C5CC5)on4)CC3)CC2)cc1 | 20 | 54 | – | – | – |
| NC[C@H]1CC[C@H](S(=O)(=O)N2CCC(NC(=O)c3cc(C4CC4)on3)CC2)CC1 | 25 | 237 | – | – | – |
| O=C(NC1CCN(S(=O)(=O)C[C@H]2CC[C@H](NCc3cccc(F)c3)CC2)CC1)c1cc(C2CC2)on1 | < 1 | 38 | – | – | – |
| CN1CCC(S(=O)(=O)N2CCC(NC(=O)c3cc(C4CC4)on3)CC2)CC1 | 50 | 300 | – | – | – |
| O=C(NC1CCN(S(=O)(=O)C[C@H]2CC[C@H](NCc3ccccc3)CC2)CC1)c1cc(C2CC2)on1 | < 1 | 22 | – | – | – |
| O=C(NC1CCN(S(=O)(=O)C[C@H]2CC[C@H](NCc3cc(F)ccn3)CC2)CC1)c1cc(C2CC2)on1 | 10 | 58 | – | – | – |
| O=C(NC1CCN(S(=O)(=O)C[C@H]2CC[C@H](NCc3ccc(F)cn3)CC2)CC1)c1cc(C2CC2)on1 | < 1 | 42 | – | – | – |
| Cc1cccc(CN[C@H]2CC[C@H](CS(=O)(=O)N3CCC(NC(=O)c4cc(C5CC5)on4)CC3)CC2)c1 | 10 | 53 | – | – | – |
| CC(C)CN[C@H]1CC[C@H](CS(=O)(=O)N2CCC(NC(=O)c3cc(C4CC4)on3)CC2)CC1 | 16 | 156 | – | – | – |
| CC(C)(C)CCN[C@H]1CC[C@H](CS(=O)(=O)N2CCC(NC(=O)c3cc(C4CC4)on3)CC2)CC1 | 20 | 128 | – | – | – |
| O=C(NC1CCN(S(=O)(=O)C[C@H]2CC[C@H](NCc3ccc(Cl)cn3)CC2)CC1)c1cc(C2CC2)on1 | < 1 | 26 | – | – | – |
| N[C@H]1CC[C@H](S(=O)(=O)N2CCC(NC(=O)c3cc(C4CC4)on3)CC2)CC1 | 1.6 | 71 | – | – | – |

| SMILES | IC50 [1] [nM] | EC50 [2] [nM] | Ki [3] [nM] | Ki [4] [nM] | IC50 [5] [nM] |
| --- | --- | --- | --- | --- | --- |
| O=C(NC1CCN(S(=O)(=O)C[C@H]2CC[C@H](NCc3cccc(Cl)c3)CC2)CC1)c1cc(C2CC2)on1 | 8 | 29 | – | – | – |
| CC(C)(C)CN[C@H]1CC[C@H](CS(=O)(=O)N2CCC(NC(=O)c3cc(C4CC4)on3)CC2)CC1 | 40 | 173 | – | – | – |
| O=C(NC1CCN(S(=O)(=O)C[C@H]2CC[C@H](NCc3ccc(F)cc3)CC2)CC1)c1cc(C2CC2)on1 | 1.3 | 19 | – | – | – |
| CN(CCCC(F)(F)F)[C@H]1CC[C@H](CS(=O)(=O)N2CCC(NC(=O)c3cc(C4CC4)on3)CC2)CC1 | < 1 | 261 | – | – | – |
| O=C(NC1CCN(S(=O)(=O)C[C@H]2CC[C@H](NCc3ccccc3Cl)CC2)CC1)c1cc(C2CC2)on1 | 32 | 31 | – | – | – |
| O=C(NC1CCN(S(=O)(=O)C[C@H]2CC[C@H](NCc3cccnc3)CC2)CC1)c1cc(C2CC2)on1 | 40 | 55 | – | – | – |
| CN[C@H]1CC[C@H](CS(=O)(=O)N2CCC(NC(=O)c3cc(C4CC4)on3)CC2)CC1 | 5 | 180 | – | – | – |
| CCS(=O)(=O)N1CCC(NC(=O)c2cc(C3CC3)on2)CC1 | 7940 | – | – | – | – |
| NCCCCS(=O)(=O)N1CCC(NC(=O)c2cc(C3CC3)on2)CC1 | 25 | 494 | – | – | – |
| CCCN[C@H]1CC[C@H](CS(=O)(=O)N2CCC(NC(=O)c3cc(C4CC4)on3)CC2)CC1 | 32 | 177 | – | – | – |
| O=C(NC1CCN(S(=O)(=O)c2ccc(CN3CCCCC3)cc2)CC1)c1cc(C2CC2)on1 | 100 | 919 | – | – | – |
| O=C(NC1CCN(S(=O)(=O)C2CCNCC2)CC1)c1cc(C2CC2)on1 | 32 | 183 | 17 | – | 167 |
| O=C(NC1CCN(S(=O)(=O)C2CCNC2)CC1)c1cc(C2CC2)on1 (configuration not stated) | 40 | 611 | – | – | – |
| N[C@H]1CC[C@@H](S(=O)(=O)N2CCC(NC(=O)c3cc(C4CC4)on3)CC2)CC1 | 10 | 160 | – | – | – |
| O=C(NC1CCN(S(=O)(=O)CCCN2CCCC2)CC1)c1cc(C2CC2)on1 | 126 | 1520 | – | – | – |
| O=C(NC1CCN(S(=O)(=O)C[C@H]2CC[C@H](NCc3cncc(F)c3)CC2)CC1)c1cc(C2CC2)on1 | < 1 | 27 | – | – | – |
| O=C(NC1CCN(S(=O)(=O)C[C@H]2CC[C@H](NCc3ccccc3F)CC2)CC1)c1cc(C2CC2)on1 | 2.5 | 22 | – | – | – |
| O=C(NC1CCN(S(=O)(=O)C[C@H]2CC[C@H](NCc3ccccn3)CC2)CC1)c1cc(C2CC2)on1 | 25 | 71 | – | – | – |
| CN(C)Cc1ccc(S(=O)(=O)N2CCC(NC(=O)c3cc(C4CC4)on3)CC2)cc1 | 79 | 597 | – | – | – |
| O=C(NC1CCN(S(=O)(=O)c2ccc(CN3CCCC3)cc2)CC1)c1cc(C2CC2)on1 | 16 | 373 | – | – | – |
| O=C(NC1CCN(S(=O)(=O)c2ccc(CN3CCC3)cc2)CC1)c1cc(C2CC2)on1 | 20 | 179 | – | – | – |
| CCN1CCC(S(=O)(=O)N2CCC(NC(=O)c3cc(C4CC4)on3)CC2)CC1 | 100 | 617 | – | – | – |
